Measured values published in ChEMBL document CHEMBL3351980, “Michael acceptor approach to the design of new salvinorin A-based high affinity ligands for the kappa-opioid receptor” (Eur J Med Chem, 2014).

The chains behind the UniProt entries cited, without tags or fusion partners. Where a name states a change or a piece, a line headed by the entry shows the natural chain unless it says otherwise.
UniProt P35372, whole entry: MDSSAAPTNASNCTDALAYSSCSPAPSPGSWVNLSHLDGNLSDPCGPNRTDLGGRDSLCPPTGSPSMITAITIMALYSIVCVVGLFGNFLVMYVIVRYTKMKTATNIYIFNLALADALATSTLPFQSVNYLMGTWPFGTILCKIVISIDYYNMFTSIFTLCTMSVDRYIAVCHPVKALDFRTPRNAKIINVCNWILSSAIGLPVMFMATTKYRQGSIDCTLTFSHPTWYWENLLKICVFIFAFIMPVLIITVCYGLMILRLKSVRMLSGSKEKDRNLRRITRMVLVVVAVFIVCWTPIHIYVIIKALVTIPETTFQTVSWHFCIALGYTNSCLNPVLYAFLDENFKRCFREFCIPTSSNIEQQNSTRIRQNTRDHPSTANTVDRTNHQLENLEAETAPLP
UniProt P41145: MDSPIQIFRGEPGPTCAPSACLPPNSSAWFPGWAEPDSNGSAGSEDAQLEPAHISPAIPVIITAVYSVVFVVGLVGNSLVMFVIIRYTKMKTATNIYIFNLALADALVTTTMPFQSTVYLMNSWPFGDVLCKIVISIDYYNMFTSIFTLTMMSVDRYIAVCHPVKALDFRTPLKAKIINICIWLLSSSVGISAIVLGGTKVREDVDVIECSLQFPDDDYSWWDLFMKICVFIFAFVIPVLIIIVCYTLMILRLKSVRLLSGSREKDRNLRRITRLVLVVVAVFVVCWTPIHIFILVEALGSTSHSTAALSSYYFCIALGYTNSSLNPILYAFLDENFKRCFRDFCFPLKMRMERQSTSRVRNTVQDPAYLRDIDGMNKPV

Columns and labels:
[1] = target: Mu-type opioid receptor (Homo sapiens, UniProt P35372); experiment: Displacement of [3H]DAMGO from mu opioid receptor (unknown origin) expressed in HEK293T cells after 1.5 hrs by radioligand binding assay; assay type: cell-based, HEK-293T
[2] = target: T1, Kappa-type opioid receptor (Homo sapiens, UniProt P41145); experiment: Inhibition of human kappa opioid receptor expressed in HEK293T cells assessed as inhibition of cAMP production after 30 mins; assay type: functional, cell-based, HEK-293T
Procedure, shortened: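 HEK293T cells were transiently co-transfected with the GloSensor-22F cAMP biosensor and hKOR, then seeded after 18 h at 37 °C in HBSS, 10% FBS, 20 mM HEPES, pH 7.4. After 1–2 h recovery, cells received drug for 30 min. cAMP was then stimulated with isoproterenol, added as a 1,200 nM 4× solution in GloSensor reagent, and luminescence was read.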

[3] = organism: Homo sapiens; experiment: Selectivity ratio of Ki for mu opioid receptor (unknown origin) to ratio of Ki for kappa opioid receptor (unknown origin)
[4] = organism: Homo sapiens; experiment: Selectivity ratio of Ki for delta opioid receptor (unknown origin) to ratio of Ki for kappa opioid receptor (unknown origin)
[5] = target: T1, Kappa-type opioid receptor; experiment: Displacement of [3H]U69593 from kappa opioid receptor (unknown origin) expressed in HEK293T cells after 1.5 hrs by radioligand binding assay; assay type: cell-based, HEK-293T
Procedure, shortened: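 HEK293T cells stably expressing KOR were hypotonically lysed in 50 mM Tris-HCl, 10 mM MgCl2, 0.1 mM EDTA, pH 7.4, and membranes were pelleted. Membranes (1 μg protein/μL suspension) were incubated with 0.5 nM [3H]U-69593 and competitor at 10 pM–10 μM final for 1.5 h in the dark at room temperature. Samples were filtered onto PEI-soaked GF/A filters and scintillation counted. Ki came from a one-site competition fit.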

C=CCC(=O)O[C@H]1C[C@@H](C(=O)OC)[C@]2(C)CC[C@H]3C(=O)O[C@H](c4ccoc4)C[C@]3(C)[C@H]2C1=O
pKi [1]: 5.84
pEC50 [2]: 7.64
Ratio Ki [3]: 144
Ratio Ki [4]: 326
pKi [5]: 8.00

pEC50, pKi: −log10 of the molar value.
